Here are results for 1 compound from patent US8188081B2, “Methods of treating inflammation using prokineticin 1 receptor antagonists” (Janssen Pharmaceutica, NV, priority 2005, dated 2012).

The test concerns rat ileum mucosa.

For the compound `CN1[C@@H]2CC[C@H]1C[C@@H](OC(=O)C(CO)c1ccccc1)C2` (stereo partly shown) [Atropine, reference compound], the “block of the pro-secretory effect of PK1” value is “not blocked”.
